Molecules are shown by their SMILES.

Assay [1] deals with BRD4 (Homo sapiens (Human), UniProt O60885). Briefly: BRD4 AlphaScreen. The following applies: read-out: IC50 (nM) BRD4. (In general: Bead proximity is the source of the signal in Alpha formats.)
Assay [2] has as its target BRD4 adjoined to nanoluciferase (Nluc) (Homo sapiens (Human), UniProt O60885+Q96SW2). Briefly: BRD4 Dual Luciferase Assay. The following applies: for DC50: read-out: BRD4 DC50 (nM) Dual Luciferase.

Take `Cc1sc2c(c1C)C(c1ccc(Cl)cc1)=N[C@@H](CC(=O)NCc1ccc(CNC(=O)COc3cccc4c3C(=O)N(C3CCC(=O)NC3=O)C4=O)cc1)c1nnc(C)n1-2` (stereo partly shown) [dBET41]: the IC50 in assay [1] is 63 nM. Also, the DC50 in assay [2] worked out at 25 nM. Turning to `Cc1sc2c(c1C)C(c1ccc(Cl)cc1)=N[C@@H](CC(=O)NCCCCCC(=O)NCc1cccc3c1C(=O)N(C1CCC(=O)NC1=O)C3=O)c1nnc(C)n1-2` (stereo partly shown) [dBET37], the half-maximal inhibitory concentration (IC50) in assay [1] was 13 nM. Take `Cc1sc2c(c1C)C(c1ccc(Cl)cc1)=N[C@@H](CC(=O)NCCCCNC(=O)Cc1cccc3c1C(=O)N(C1CCC(=O)NC1=O)C3=O)c1nnc(C)n1-2` (stereo partly shown) [dBET36]: the 50% inhibitory concentration (IC50) in assay [1] was determined as 80 nM. Moreover, in assay [2], the DC50 is 47 nM.

In the case of `Cc1sc2c(c1C)C(c1ccc(Cl)cc1)=N[C@@H](CC(=O)NCCCCCCCC(=O)Nc1cccc3c1CN(C1CCC(=O)NC1=O)C3=O)c1nnc(C)n1-2` (stereo partly shown) [dBET44], in assay [1], the IC50 was determined as 30 nM. For the compound `Cc1sc2c(c1C)C(c1ccc(Cl)cc1)=N[C@@H](CC(=O)NCCNC(=O)COc1cccc3c1C(=O)N(C1CCC(=O)NC1=O)C3=O)c1nnc(C)n1-2` (stereo partly shown) [dBET3], in assay [2], the “pDC50 (dual luc)” value is 7.663 and the DC50 is 22 nM. As to `Cc1sc2c(c1C)C(c1ccc(Cl)cc1)=N[C@@H](CC(=O)NCCCCCCC(=O)Nc1cccc3c1CN(C1CCC(=O)NC1=O)C3=O)c1nnc(C)n1-2` (stereo partly shown) [dBET43], the IC50 in assay [1] is 25 nM. On to `Cc1sc2c(c1C)C(c1ccc(Cl)cc1)=N[C@@H](CC(=O)NCCCOCCCNC(=O)COc1cccc3c1C(=O)N(C1CCC(=O)NC1=O)C3=O)c1nnc(C)n1-2` (stereo partly shown) [dBET38], for which the IC50 in assay [1] worked out at 31 nM. In addition, the DC50 in assay [2] was found to be 15 nM. On to `Cc1sc2c(c1C)C(c1ccc(Cl)cc1)=N[C@@H](CC(=O)NCCCCC(=O)Nc1cccc3c1CN(C1CCC(=O)NC1=O)C3=O)c1nnc(C)n1-2` (stereo partly shown) [dBET42], for which, in assay [1], the IC50 stood at 27 nM. In the case of `Cc1sc2c(c1C)C(c1ccc(Cl)cc1)=N[C@@H](CC(=O)NCCCCCCNC(=O)COc1cccc3c1C(=O)N(C1CCC(=O)NC1=O)C3=O)c1nnc(C)n1-2` (stereo partly shown) [dBET5], in assay [2], the “pDC50 (dual luc)” value is reported as 7.167 and the DC50 was found to be 68 nM. Regarding `Cc1sc2c(c1C)C(c1ccc(Cl)cc1)=N[C@@H](CC(=O)NCCOCCOCCOc1cccc3c1C(=O)N(C1CCC(=O)NC1=O)C3=O)c1nnc(C)n1-2` (stereo partly shown) [dBET40], the IC50 in assay [1] was 89 nM. With `Cc1sc2c(c1C)C(c1ccc(Cl)cc1)=N[C@@H](CC(=O)NCCCCNC(=O)CNc1cccc3c1CN(C1CCC(=O)NC1=O)C3=O)c1nnc(C)n1-2` (stereo partly shown) [dBET35], the IC50 in assay [1] was found to be 7.2 nM. Still for that read-out and setting: to `Cc1sc2c(c1C)C(c1ccc(Cl)cc1)=N[C@@H](CC(=O)NCCCOCCOCCOCCCNC(=O)COc1cccc3c1C(=O)N(C1CCC(=O)NC1=O)C3=O)c1nnc(C)n1-2` (stereo partly shown) [dBET9] belongs 15 nM. `Cc1sc2c(c1C)C(c1ccc(Cl)cc1)=N[C@@H](CC(=O)NCCCCCCNC(=O)c1ccc3c(c1)C(=O)N(C1CCC(=O)NC1=O)C3=O)c1nnc(C)n1-2` (stereo partly shown) [dBET15]: in assay [2], the “pDC50 (dual luc)” value worked out at 6.475 and the DC50 stood at 335 nM.

Broadly, the IC50 is the concentration at which inhibition is half-maximal.
